Results: ChEMBL document CHEMBL1157133, “Design, synthesis, and interaction study of quinazoline-2(1H)-thione derivatives as novel potential Bcl-xL inhibitors” (J Med Chem, 2010)

What was measured:
[1] = test system: OVCAR-3; assay: Cytotoxicity against human OVCAR-3 cells after 48 hrs by MTT assay; assay type: functional, cell-based
[2] = test system: BEL-7404; assay: Cytotoxicity against human Bel7404 cells after 48 hrs by MTT assay; assay type: functional, cell-based

SMILES	Activity [1]	Activity [2]
COc1ccccc1C1C2=C(N=c3s/c(=C\c4ccc(-c5cccc(C(=O)O)c5)o4)c(=O)n31)c1ccccc1CC2 (stereo unspecified)	Dose-dependent effect	Dose-dependent effect
COc1ccccc1C1C2=C(N=c3s/c(=C\c4ccccc4OCC(=O)O)c(=O)n31)c1ccccc1CC2 (stereo unspecified)	Dose-dependent effect	Dose-dependent effect
O=C(O)c1cccc(-c2ccc(/C=c3\sc4n(c3=O)C(c3ccccc3)C3=C(N=4)c4ccccc4CC3)o2)c1 (stereo unspecified)	Dose-dependent effect	Dose-dependent effect
O=C(O)COc1cccc(/C=c2\sc3n(c2=O)C(c2cccc4ccccc24)C2=C(N=3)c3ccccc3CC2)c1 (stereo unspecified)	Dose-dependent effect	Dose-dependent effect
O=C(O)c1cccc(-c2ccc(/C=c3\sc4n(c3=O)C(c3cccc(F)c3)C3=C(N=4)/C(=C/c4cccc(F)c4)CCC3)o2)c1 (stereo unspecified)	Dose-dependent effect	Dose-dependent effect
COc1ccccc1C1C2=C(N=c3s/c(=C\c4ccc(C(=O)O)cc4)c(=O)n31)c1ccccc1CC2 (stereo unspecified)	Dose-dependent effect	Dose-dependent effect
CCOC(=O)COc1cccc(/C=c2\sc3n(c2=O)C(c2ccccc2OC)C2=C(N=3)c3ccccc3CC2)c1 (stereo unspecified)	Dose-dependent effect	Dose-dependent effect
COc1ccccc1C1C=C(c2ccccc2)N=c2s/c(=C\c3cccc(OCC(=O)O)c3)c(=O)n21 (stereo unspecified)	Dose-dependent effect	Dose-dependent effect
COc1ccccc1C1C2=C(N=c3s/c(=C\c4ccc(OCC(=O)O)cc4)c(=O)n31)c1ccccc1CC2 (stereo unspecified)	Dose-dependent effect	Dose-dependent effect
O=C(O)COc1cccc(/C=c2\sc3n(c2=O)C(c2cccc(F)c2)C2=C(N=3)/C(=C/c3cccc(F)c3)CCC2)c1 (stereo unspecified)	Dose-dependent effect	Dose-dependent effect
O=C(O)c1cccc(-c2ccc(/C=c3\sc4n(c3=O)C(c3ccccc3F)C3=C(N=4)c4ccccc4CC3)o2)c1 (stereo unspecified)	Dose-dependent effect	Dose-dependent effect
COc1ccccc1C1C2=C(N=c3s/c(=C\c4ccc(-c5cccc(C(=O)O)c5)cc4)c(=O)n31)c1ccccc1CC2 (stereo unspecified)	Dose-dependent effect	Dose-dependent effect
O=C(O)COc1cccc(/C=c2\sc3n(c2=O)C(c2ccccc2)C2=C(N=3)c3ccccc3CC2)c1 (stereo unspecified)	Dose-dependent effect	Dose-dependent effect
